± gives the expanded uncertainty stated by the source.

This data set is described as follows: activity coefficient (dimensionless); of the first substance listed, at infinite dilution; xn = mol fraction of the nth substance listed. The conditions noted are these: 101 kPa, Liquid, Chromatography, x1 = 0.

For the compound `CCCCOCCCC` [dibutyl ether] + CCn1cc[n+](C)c1.CS(=O)(=O)[O-], the activity coefficient came to 247 ± 17 (308.15 K); 221 ± 15 (318.15 K); 199 ± 14 (328.15 K); 179 ± 12 (338.15 K); 165 ± 11 (348.15 K).

Source of the values: the NIST ThermoML archive (doi:10.1016/j.jct.2012.03.005).
